Ab-14 light chain CDR variants: yeast mating affinities

Data: MIT Lincoln Laboratory AlphaSeq set, Li et al. 2023, doi:10.1038/s41467-023-39022-2, as distributed in FLAb.

All variants were tested on one target, the spike HR2 peptide PDVDLGDISGINAS (SARS-CoV-2).

Parent scFv Ab-14: VH joined to VL by a 15-residue (Gly4Ser)3 linker. Changes lie in the light chain CDRs alone.
VH: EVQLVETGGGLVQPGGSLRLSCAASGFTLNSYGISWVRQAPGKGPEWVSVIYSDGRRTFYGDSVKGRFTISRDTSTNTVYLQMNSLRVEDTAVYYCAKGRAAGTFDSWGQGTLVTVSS
VL: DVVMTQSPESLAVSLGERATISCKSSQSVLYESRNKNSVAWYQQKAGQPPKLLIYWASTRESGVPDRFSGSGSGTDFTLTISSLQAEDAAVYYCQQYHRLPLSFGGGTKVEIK

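The starting antibody came from a phage panning campaign against this peptide. This is the validation round: designs drawn from the data on random variants, tested in the same kind of assay. Their group label is 14L_GP_HC (GP: Gaussian process model; HC: hill climbing; a sequence that several methods proposed may carry one label only). The scFvs were displayed on barcoded MATa yeast, the peptide on MATalpha yeast. Pairs that bind mate more often; barcode pairs of the diploids are counted by sequencing. A regression on co-assayed BCL2-family reference pairs converts the normalised counts of each replicate to an apparent Kd. Mating was done six times.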

Changes read parent residue, position, new residue, counted from the first residue of the VL shown. Affinities are written as log10 Kd with Kd in nM; a lower number is a better binder. A mean of the replicates is given; it leaves out those without a signal. "n.d." means that the variant was in the library but no mating with the target was seen in that replicate; the authors take this as a sign of poor binding, and no number exists. The parent sequence was in this pool as ten entries: three were never detected, three once, and four in most replicates, with averages from 0.34 to 2.37. Empty control strains, which show no peptide, gave a signal in 4% of pairings with all light chain designs; the median was 2.64 and 95% of these signals were weaker than 1.59. No background was subtracted. Also given: how often the same scFv was detected with the empty control strains, with their mean in brackets. Values of this round are not directly comparable with the first-round values of the same sequences. In the paper, a design with two or fewer of six values counts as a poor binder.

changes	replicates, log10 nM	mean log10 Kd (nM)	empty controls
S25Q V29W L30I W56G	0.10 / -0.09 / 0.01 / -0.10 / 0.01 / 0.02	-0.01	2/18 (3.22)
L30D Y31C W56D	1.34 / 0.75 / 0.66 / 0.65 / 0.91 / 0.74	0.84	0/18
S25V S26R V29T Y31G	1.03 / 0.46 / 0.92 / 0.92 / 1.21 / 1.02	0.93	1/18 (3.23)
S25L S26Q S28Q W56S S62E	0.60 / 1.64 / 1.28 / 0.81 / -0.01 / 0.22	0.76	0/18
S25V R34G N35L W56N	0.03 / 0.01 / 0.06 / -0.15 / -0.09 / -0.01	-0.02	2/18 (2.64)
S25L S26Q S28Q V29T W56Q S62E	0.29 / -0.01 / -0.12 / -0.10 / -0.06 / 0.59	0.10	0/18
Q27L Y31F W56N S103R	1.64 / 1.48 / 1.17 / 1.16 / 0.89 / 1.51	1.31	0/18
S26G S28G L30A W56G	0.14 / -0.08 / 0.12 / -0.22 / -0.08 / 0.11	0.00	0/18
S25F S26Q S38N W56H S62D	0.26 / -0.20 / -0.31 / -0.29 / -0.47 / -0.01	-0.17	0/18
Q27Y V29E R34V W56H	0.14 / -0.19 / -0.20 / -0.17 / -0.14 / 0.11	-0.08	3/18 (2.59)
S25M S26E S28G V29E N37G W56G T59V	-0.29 / -0.47 / -0.38 / -0.54 / -0.57 / -0.28	-0.42	0/18
S25L S26E W56H S62D Q95K	0.35 / 0.24 / 0.07 / 0.17 / 0.05 / 0.23	0.18	1/18 (2.11)
Q27I V29Y R34E N37Q W56E T59Q	0.48 / 0.36 / 0.23 / 0.39 / 0.84 / 0.40	0.45	2/18 (2.35)
K24H S25L Q27D W56N S103W	-0.18 / -0.39 / -0.41 / -0.67 / -0.38 / -0.30	-0.39	1/18 (3.01)
S25E V29W L30S W56G	0.01 / -0.15 / -0.14 / -0.33 / -0.09 / -0.10	-0.13	1/18 (2.71)
S25V S26D V29T	n.d. / 1.91 / n.d. / n.d. / 2.50 / 2.77	2.39	1/18 (2.45)
S25V N35M W56D	-0.35 / -0.39 / -0.24 / -0.41 / -0.31 / -0.18	-0.31	0/18
Q27I V29N W56A	0.46 / 0.41 / 0.22 / 0.23 / 0.24 / 0.22	0.30	2/18 (2.47)
S25L S26Q S28G W56G	0.10 / -0.20 / -0.14 / -0.10 / -0.30 / 0.00	-0.11	0/18
Q27M R34G W56H S62D	0.33 / 0.33 / 0.41 / 0.24 / 0.16 / 0.32	0.30	0/18
Q27P R34Q W56N E61M	-0.14 / -0.13 / -0.04 / -0.22 / -0.14 / -0.12	-0.13	0/18
S25F N35V W56N	-0.01 / -0.01 / -0.10 / -0.04 / -0.11 / 0.07	-0.03	1/18 (2.53)
K24N S25L S26M W56H T59L S62D	-0.03 / 0.17 / 0.02 / -0.03 / 0.32 / -0.10	0.06	0/18
V29M W56H S62D	0.29 / 0.14 / 0.22 / -0.03 / 0.16 / 0.33	0.19	0/18
S25V V29I Y31C W56D	-0.13 / -0.37 / -0.29 / -0.36 / -0.29 / -0.25	-0.28	2/18 (4.13)
Q27I S28G V29Y W56A	0.18 / 0.20 / 0.28 / -0.21 / -0.19 / 0.11	0.06	0/18
Y31P E32Q W56D	0.55 / 0.32 / 0.16 / 0.05 / 0.17 / 0.29	0.26	2/18 (2.09)
K24H Q27P L30E W56N	0.16 / -0.45 / -0.33 / -0.56 / -0.50 / 0.37	-0.22	0/18
S25F V29Y L30H W56G	0.34 / 0.27 / 0.40 / 0.39 / 0.32 / 0.31	0.34	1/18 (1.58)
K24H Q27P L30Y W56N S103Q	-0.11 / -0.37 / -0.28 / -0.57 / -0.22 / -0.18	-0.29	0/18
S25L S26R Q27N V29T N35Q	1.04 / 1.08 / 0.92 / 1.17 / 1.17 / 1.69	1.18	2/18 (2.39)
S25F S28W W56N	0.04 / 0.57 / 0.11 / 0.03 / 0.14 / 0.14	0.17	0/18
S25D S28E V29K W56D	-0.07 / -0.25 / 0.07 / -0.34 / -0.10 / 0.23	-0.08	1/18 (2.42)
V29W K36F N37W W56G	0.60 / 0.46 / 0.86 / 0.47 / 0.58 / 0.80	0.63	0/18
S25L S26G Q27C S28G W56G	-0.48 / -0.57 / -0.61 / -0.55 / -0.58 / -0.30	-0.51	2/18 (2.76)
S25Q V29Q Y31C W56D	0.79 / 0.40 / 0.36 / 0.22 / 0.63 / 0.32	0.45	0/18
S25M S26Q S38N W56H S62D	0.04 / -0.35 / -0.27 / -0.40 / -0.23 / -0.23	-0.24	0/18
S25G V29W K36F N37W W56G	n.d. / 1.93 / 1.97 / 0.84 / 0.85 / 1.96	1.51	0/18
S25L S26R V29T W56D	-0.09 / -0.21 / -0.34 / -0.37 / -0.24 / -0.05	-0.22	2/18 (2.49)
S25F N35T W56N Q96S	0.17 / 0.85 / 0.04 / 0.42 / 0.41 / -0.13	0.29	0/18
S25L S26R V29T K36Q W56D	-0.17 / -0.28 / -0.45 / -0.37 / -0.30 / -0.14	-0.29	1/18 (3.02)
K24I S25A V29W W56G S103I	0.93 / 0.78 / 1.17 / 0.63 / 0.69 / 1.04	0.87	1/18 (2.70)
S25L V29F W56G Q95Y P101T	n.d. / n.d. / n.d. / n.d. / n.d. / n.d.	n.d.	0/18
S25L S26L W56E S62D R99Q	0.61 / 0.50 / 0.47 / 0.37 / 0.17 / 0.47	0.43	0/18
S25Q S28E V29K S38N W56D	0.21 / -0.28 / -0.10 / 0.21 / 0.14 / 0.30	0.08	0/18